{"source": "patent US10428043B2", "about": "“Green oxidation catalytic system” (TRUSTEES OF BOSTON UNIVERSITY, priority 2014, dated 2019)", "assay": "Solubility", "format": "physicochemical", "details": "in methanol"}
{"substance": "mono-sodium salt of α-ketoglutarate [[α-KG][Na], reference compound]", "values": [{"measurement": "solubility", "value": "~10", "unit": "mM"}]}
